## scFv variants of Ab-14 (heavy chain) against a SARS-CoV-2 spike peptide

The target is the same throughout: PDVDLGDISGINAS, from the HR2 region of SARS-CoV-2 spike.

The variants keep the light chain, the linker and the frameworks of Ab-14 (scFv order VH, three GGGGS repeats, VL).
VH: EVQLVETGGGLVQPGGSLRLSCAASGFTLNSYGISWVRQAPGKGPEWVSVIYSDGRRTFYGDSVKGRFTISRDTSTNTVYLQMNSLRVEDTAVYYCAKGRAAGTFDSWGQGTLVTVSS
VL: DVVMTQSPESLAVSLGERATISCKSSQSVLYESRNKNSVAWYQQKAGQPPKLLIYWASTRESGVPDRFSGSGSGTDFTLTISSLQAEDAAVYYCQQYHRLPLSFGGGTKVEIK

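The starting antibody came from a phage panning campaign against this peptide. These sequences belong to a second round, designed from the earlier measurements on random variants of the parent. Group labels follow the data file (Ctrl: baseline library sampled from a position-specific scoring matrix, with some repeated check sequences; Rand: our label for a block that the file lists under HC and that is probably the random mutants of the ten best first-round binders; En: ensemble of fine-tuned language models; GP: Gaussian process model; GPLM: also part of the Gaussian process libraries; HC: hill climbing; Gen: genetic algorithm; Gibbs: Gibbs sampling; a sequence that several methods proposed may carry one label only). The scFvs were displayed on barcoded MATa yeast, the peptide on MATalpha yeast. Pairs that bind mate more often; barcode pairs of the diploids are counted by sequencing. Each replicate has its own calibration line, from reference interactions of the BCL2 family. The assay was run in six technical replicates.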

Variants are written as CDR1, CDR2 and CDR3 of the heavy chain (limits as in the source). Parent: GFTLNSYGIS, VIYSDGRRTFYGDSVK, GRAAGTFDS. Scale: log10 of Kd in nM, estimated from mating counts; low values are strong binders. A mean of the replicates is given; it leaves out those without a signal. "no signal" means that the variant was in the library but no mating with the target was seen in any replicate; the authors take this as a sign of poor binding, and no number exists. Of ten entries with the parent sequence, four were seen in most replicates (averages 0.34 to 2.37), three in one and three in none, so single entries are noisy. The range of this assay differs from that of the first round, and the authors advise against merging the two. In the paper, a design with two or fewer of six values counts as a poor binder. Background: pairings of all heavy chain designs with three empty control strains gave a value in 1% of cases (median 2.08, 5th percentile 0.84). Values in that range, when seen in few replicates, are hard to tell from nonspecific mating. The control count says in how many pairings with the empty strains this scFv gave a signal.

| mean log10 Kd (nM) | detected | empty controls | CDR-H1 | CDR-H2 | CDR-H3 | group |
|---|---|---|---|---|---|---|
| 0.12 | 6/6 | 0/18 | GFDLNEYGIS | VIYADGVRTFYADSVK | GQIAGTFDQ | En_HC |
| no signal | 0/6 | 0/18 | GFTLNSYGIS | VIYSDGWRTFYGDSVK | GRAKGTFDS | Ctrl |
| no signal | 0/6 | 0/18 | DFTLNDYGIS | VIYSDGRRTFYGDSVK | GRLAGMFDS | Ctrl |
| 0.88 | 4/6 | 0/18 | GFNLNSYGIS | VIYSDGRRTFYGDQVK | GRQAGTFDS | GP_Gen |
| 0.48 | 6/6 | 0/18 | GFSLNSYGIS | VIYSDGRRTFYADSVK | GRWAGTFDK | GP_Gibbs |
| 0.90 | 4/6 | 0/18 | GITLNSYGIS | VIYSDGRRTSYGDSVK | GRAAGTFDH | Ctrl |
| 0.29 | 6/6 | 1/18 | GFSLNDYGIS | VIYSDGFRTFYGDSVK | GRAAGTFDL | Ctrl |
| 2.11 | 6/6 | 0/18 | GFSLNSYGIS | VIYSDGRRTFYGDHVK | GQAAGTFDS | GPLM_Gen |
| -0.41 | 6/6 | 0/18 | GFNLNEYGIS | VIYADGRRTFYSNSVK | GENAGTFDV | En_HC |
| no signal | 0/6 | 0/18 | GMDLNSYGIS | VIYSDGRRTFYGDSVK | GRAAGWFNS | Rand |
| no signal | 0/6 | 0/18 | GFDLKEYGIS | VIYADGMRQVYINSFK | GDSGGIINF | En_Gibbs |
| no signal | 0/6 | 1/18 | GFTLLSYGIS | VIYSDGRRTFYGDSVK | GGAAGDFDS | Ctrl |
| -0.35 | 6/6 | 0/18 | GFDLNEYGIS | VIYADGKRTFYADSVK | GQVAGTFDI | En_HC |
| no signal | 0/6 | 0/18 | GYDIEDYGIS | VIYADGVRKVYHDSVK | GQLAGFFIT | En_Gibbs |
| 3.19 | 1/6 | 0/18 | GNTLNSYGIS | VITSDGRRTFYGDSVK | GRAVGTFDL | Ctrl |
| -0.39 | 6/6 | 0/18 | GFDLNEYGIS | VIYADGVRTVYADSVK | GTNGGTFDV | En_HC |
| 1.14 | 4/6 | 0/18 | GFDLNEYGIS | VIYSDGRRTFYGDSVK | GKAAGTFDW | GP_Gibbs |
| 1.23 | 6/6 | 0/18 | GFQLNSYGIS | VIYSDGRRTAYGDSVK | GRNAGTFDS | GP_Gen |
| no signal | 0/6 | 0/18 | GFDLDQYGIS | VIYADGKRVAYTDDVK | GVTGGMALV | En_Gibbs |
| 0.99 | 6/6 | 0/18 | GFSLNSYGIS | VIYSDGRRTFYADSVK | GQAAGTFDQ | GPLM_Gen |
| 1.32 | 1/6 | 1/18 | GFHLNSYGIS | VIYSDGRRTFYVDSVK | GQTAGTFDS | GPLM_Gibbs |
| 1.04 | 6/6 | 0/18 | GFPLNSYGIS | VIYSDGRRTFYDDSVK | GQEAGTFDS | GP_HC |
| 0.06 | 6/6 | 0/18 | GFDLNEYGIS | VIYADGRRTFYADSVK | GQVAGTFDT | En_HC |
| 1.80 | 1/6 | 1/18 | GRNLDEYGIS | VIYADGLRTSYRDNVK | GQTSGHLDM | En_Gibbs |
| no signal | 0/6 | 0/18 | GFTLKSYGIS | VIYSDGRRTFYSDSVK | GRAGGTFDS | Rand |
| 1.39 | 3/6 | 0/18 | GFQLNEYGIS | VIYSDGRRTFYIDHVK | GKAAGTFDS | GP_HC |
| 0.21 | 6/6 | 2/18 | GFSLNEMGIS | VIYSDGRRTFYTDSVK | GRFAGTFDS | GP_HC |
| 0.52 | 6/6 | 0/18 | GFELNTYGIS | VIYSDGRRTAYGDSVK | GRQAGTFDS | GP_Gibbs |
| no signal | 0/6 | 0/18 | GESLLEYGIS | VIYADGSRVAYTNAVK | GHHAGAFDV | En_Gibbs |
| no signal | 0/6 | 0/18 | GFSLLEYGIS | VIYSDGRRTEYGDSVK | GRAAGTFWS | Ctrl |
| no signal | 0/6 | 1/18 | GGDLKEYGIS | VIYADGNRKNYADNVK | GQNGDVLNI | En_Gibbs |
| 0.19 | 6/6 | 0/18 | AFDLNSYGIS | VIYSDGRRTFYGDSVK | GRTAGTFDS | GP_Gen |
| no signal | 0/6 | 0/18 | GFTLNNYGIS | VIYSDGMRTFYGDSVK | GWTAGTFWS | GP_HC |
| 0.79 | 6/6 | 0/18 | GFTLNSYGIS | VIYSDGRRTFYADSVK | GRLAGTFDS | GPLM_Gen |
| 2.63 | 5/6 | 1/18 | GFTLNSYGIS | VIYSDGRRTFYGDSVK | GYAAGTFDS | Ctrl |
| -0.02 | 5/6 | 0/18 | GFSLESYGIS | VIYSDGRRTFYGDQVK | GRTAGTFDS | GP_Gibbs |
| 0.32 | 6/6 | 0/18 | GFDLNEYGIS | VIYADGMRTYYADNVK | GENAGTFDV | En_Gen |
| 1.01 | 6/6 | 0/18 | YFDLNSYGIS | VIYSDGRRTAYGDSVK | GRTAGTFDS | GP_Gibbs |
| 2.88 | 2/6 | 0/18 | GFTLNQYGIS | VIYSDGRRTFYSDSVK | GRPAGFFDS | Rand |
| no signal | 0/6 | 0/18 | GFNLNSHGIS | VIYSDGWRTFYQDSVK | GKAAGTFRS | Ctrl |
| 1.78 | 5/6 | 0/18 | GFELNSYGIS | VIYSDGRRTFYGDSVK | GRAAGTFDQ | Ctrl |
| no signal | 0/6 | 0/18 | GFTLLFYGIS | VIYSDGRRTIYGDSVK | GREASTFDS | Ctrl |
| 1.19 | 5/6 | 0/18 | GFDLDEYGIS | VIYADGRRTFYIDSVK | GENAGTFDV | En_HC |
| 1.23 | 6/6 | 0/18 | GFTLNSYGIS | VIYSDGRRTFYGDSVK | GTAAGTFDN | Ctrl |
| 0.94 | 6/6 | 0/18 | GFSLNSYGIS | VIYSDGRRTFYGDSVK | GRVAGTFDQ | GPLM_Gen |
| 0.17 | 6/6 | 0/18 | GFSLNMYGIS | VIYSDGRRTAYGDSVK | GRAAGTFDS | GPLM_Gibbs |
| 0.19 | 6/6 | 1/18 | GFNLNEYGIS | VIYADGRRTAYSNSVK | GEAAGTFDV | En_HC |
| -0.26 | 6/6 | 0/18 | GFSLNSYGIS | VIYSDGRRTFYTDSVK | GQVAGTFDS | GPLM_Gibbs |
| no signal | 0/6 | 1/18 | GFTLASYEIS | VIYSDGRRTFYSDSVK | GRAHGTFDS | Rand |
| no signal | 0/6 | 0/18 | GKNIEEYGVS | VIYADGKRTAYANNFK | GSNAGSFVS | En_Gibbs |
| -0.14 | 6/6 | 0/18 | GFDLNEYGIS | VIYADGRRTAYLDSVK | GQLAGTFDV | En_HC |
| no signal | 0/6 | 0/18 | GFQLNEYGVS | VIYADGMRSSYQDSVK | GSNSSLFDV | En_Gibbs |
| 1.31 | 5/6 | 0/18 | GFTLDSYGIS | VIYSDGRRTFYDDRVK | GQLAGTFDS | GP_HC |
| 1.48 | 2/6 | 0/18 | GFDLDEYGIS | VIYADGMRTAYADSVK | GNQAGTFDQ | En_Gen |
| 0.67 | 6/6 | 0/18 | GFGLNEYGIS | VIYSDGRRTFYGDSVK | GQAAGTFDL | GPLM_Gen |
| 0.01 | 6/6 | 0/18 | GFTLNSYGIS | VIYSDGRRTFYSDSVK | GKEAGTFDS | GPLM_Gen |
| -0.17 | 6/6 | 0/18 | GFDLDEYGIS | VIYADGMRTSYADSVK | GNQAGTFDV | En_Gen |
| -0.36 | 6/6 | 0/18 | GYSLEDYGIS | VIYADGRRTAYAADVK | GQEGNVVAG | En_Gibbs |
| no signal | 0/6 | 0/18 | GFGLNSYSIS | VIYSDGRRTFYGDSVK | GRAAGTFDS | Ctrl |
| -0.08 | 6/6 | 0/18 | GFSLNQYGIS | VIYSDGRRTFYGDSVK | GRTAGTFDS | GPLM_Gen |
| no signal | 0/6 | 0/18 | GFTLNSYGLS | VIYSDGRRTFYGDSYK | RRAAGTFRS | Ctrl |
| 0.23 | 6/6 | 0/18 | GFNLNSYGIS | VIYSDGRRTFYSDSVK | GHAAGTFDS | GP_HC |
| no signal | 0/6 | 0/18 | GQDLNEYGIS | VIYADGRRQMYANPVK | GHQGGIKLT | En_Gibbs |
| 0.17 | 6/6 | 0/18 | GFDLNSYGIS | VIYSDGRRTFYGDSVK | GKEAGTFDD | GP_Gen |
| no signal | 0/6 | 0/18 | GFTLNSYGIS | VIYSDGRRTFYGDSVK | VRLAGTFDS | Ctrl |
| -0.44 | 6/6 | 0/18 | GFDLNEYGIS | VIYADGRRKAYADSVK | GNVAGTFDI | En_Gen |

Data: MIT Lincoln Laboratory AlphaSeq set, Li et al. 2023, doi:10.1038/s41467-023-39022-2, as distributed in FLAb.